This note sets out measurements from PubChem BioAssay (EPA / NIEHS).

The chains behind the UniProt entries cited, without tags or fusion partners. Where a name states a change or a piece, a line headed by the entry shows the natural chain unless it says otherwise.
UniProt P16581: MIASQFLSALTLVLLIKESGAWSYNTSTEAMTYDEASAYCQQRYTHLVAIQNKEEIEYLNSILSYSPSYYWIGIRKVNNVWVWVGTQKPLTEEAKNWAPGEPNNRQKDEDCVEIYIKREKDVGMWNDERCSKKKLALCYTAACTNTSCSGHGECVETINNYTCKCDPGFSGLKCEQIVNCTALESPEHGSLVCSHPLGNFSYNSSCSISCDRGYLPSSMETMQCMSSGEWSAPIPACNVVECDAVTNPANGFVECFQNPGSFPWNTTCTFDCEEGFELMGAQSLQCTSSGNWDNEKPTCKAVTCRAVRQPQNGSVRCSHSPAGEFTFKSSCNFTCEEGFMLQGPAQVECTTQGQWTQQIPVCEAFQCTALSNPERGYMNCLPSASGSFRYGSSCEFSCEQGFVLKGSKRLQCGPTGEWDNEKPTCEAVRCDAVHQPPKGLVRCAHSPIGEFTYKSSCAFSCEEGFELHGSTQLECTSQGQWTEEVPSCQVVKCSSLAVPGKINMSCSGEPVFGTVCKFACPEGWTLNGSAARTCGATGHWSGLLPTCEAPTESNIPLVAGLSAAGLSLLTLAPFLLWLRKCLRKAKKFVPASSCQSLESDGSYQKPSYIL
UniProt P11511: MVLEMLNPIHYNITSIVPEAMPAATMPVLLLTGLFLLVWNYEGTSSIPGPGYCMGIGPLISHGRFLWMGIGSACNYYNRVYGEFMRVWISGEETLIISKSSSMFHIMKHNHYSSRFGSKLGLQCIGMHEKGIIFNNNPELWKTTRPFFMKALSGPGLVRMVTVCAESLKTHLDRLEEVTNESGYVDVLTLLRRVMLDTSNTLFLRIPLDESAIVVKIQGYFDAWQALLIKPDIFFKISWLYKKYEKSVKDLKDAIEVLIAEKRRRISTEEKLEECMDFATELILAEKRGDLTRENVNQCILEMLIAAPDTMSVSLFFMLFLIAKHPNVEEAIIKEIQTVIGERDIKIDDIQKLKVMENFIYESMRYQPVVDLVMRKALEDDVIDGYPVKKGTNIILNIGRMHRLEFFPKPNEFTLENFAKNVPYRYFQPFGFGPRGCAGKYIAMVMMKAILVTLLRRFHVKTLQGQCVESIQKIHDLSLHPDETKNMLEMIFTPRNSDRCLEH
UniProt P04798: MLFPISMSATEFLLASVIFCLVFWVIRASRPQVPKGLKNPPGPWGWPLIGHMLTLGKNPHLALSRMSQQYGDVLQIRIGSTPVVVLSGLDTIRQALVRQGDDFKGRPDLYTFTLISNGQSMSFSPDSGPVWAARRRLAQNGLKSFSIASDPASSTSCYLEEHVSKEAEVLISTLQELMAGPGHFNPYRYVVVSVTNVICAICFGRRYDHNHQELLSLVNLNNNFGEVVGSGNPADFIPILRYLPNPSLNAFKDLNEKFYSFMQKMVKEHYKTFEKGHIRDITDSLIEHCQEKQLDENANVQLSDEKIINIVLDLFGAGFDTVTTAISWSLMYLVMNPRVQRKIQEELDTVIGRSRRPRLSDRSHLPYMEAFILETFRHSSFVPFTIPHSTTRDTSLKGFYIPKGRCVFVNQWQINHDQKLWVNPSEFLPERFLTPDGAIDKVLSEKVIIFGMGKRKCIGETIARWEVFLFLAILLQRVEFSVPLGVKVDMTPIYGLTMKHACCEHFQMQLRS
UniProt P11509: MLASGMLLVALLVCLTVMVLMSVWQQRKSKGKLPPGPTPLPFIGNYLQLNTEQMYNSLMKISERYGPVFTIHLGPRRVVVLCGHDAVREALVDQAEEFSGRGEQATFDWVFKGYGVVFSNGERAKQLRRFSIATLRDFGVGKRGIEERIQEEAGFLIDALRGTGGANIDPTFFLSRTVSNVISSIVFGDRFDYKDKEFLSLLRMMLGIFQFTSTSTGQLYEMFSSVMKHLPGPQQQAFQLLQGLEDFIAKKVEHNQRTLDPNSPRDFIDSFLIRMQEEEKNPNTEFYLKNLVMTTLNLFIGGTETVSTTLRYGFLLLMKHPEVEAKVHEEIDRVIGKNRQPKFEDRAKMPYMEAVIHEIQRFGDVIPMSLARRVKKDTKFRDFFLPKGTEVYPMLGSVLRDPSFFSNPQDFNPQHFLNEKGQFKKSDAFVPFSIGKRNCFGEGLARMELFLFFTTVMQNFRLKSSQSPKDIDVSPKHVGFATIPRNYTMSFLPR

“And” between values parts separate entries of the source, which are not always exact repeats. Equal entries are not always repeated. This is a selection; strong and weak results do not stand in their true shares. Results filed as inconclusive are left out. The source made the active and inactive calls. How the source made its calls, unless noted: active means hit-call score of the fitted dose curve at least 0.9, where 1 is the maximum; inactive means score below 0.9.

Read-out in assay [1]: Monocyte Chemoattractant Protein-1 (MCP1), CCL2 (gene 6347)
Put plainly: BSK_SAg_MCP1: BioMAP Diversity Plus: SAg Assay for Monocyte Chemoattractant Protein-1 (MCP1) Biomarker Activity (AID 2283090). The settings on record: actives raise or lower the signal; primary human HUVEC with PBMC. The protocol:
(§1) BSK_SAg is a cell-based, multiplexed-readout assay that uses umbilical vein endothelium and peripheral blood mononuclear cells, a human vascular primary cell co-culture, with measurements taken at 24 hours after chemical dosing in a 96-well plate.BSK_SAg_MCP1 is an assay component measured in the BSK_SAg assay. It measures MCP-1 antibody related to regulation of gene expression using ELISA technology.Data from the assay component BSK_SAg_MCP1 was analyzed into 1 assay endpoint. This assay endpoint, BSK_SAg_MCP1, was analyzed with bidirectional fitting relative to DMSO as the negative control and baseline of activity. Using a type of binding reporter, gain or loss-of-signal activity can be used to understand changes in the signaling as they relate to the gene CCL2. Furthermore, this assay endpoint can be referred to as a primary readout, because this assay has produced multiple assay endpoints where this one serves a signaling function. To generalize the intended target to other relatable targets, this assay endpoint is annotated to the cytokine intended target family, where the subfamily is chemotactic factor.
(§2) The levels of cell surface (or secreted, indicated by the prefix "s") biomarker endpoints were measured by ELISA. Overt cytotoxicity to cells in confluent adherent cultures (all systems other than the BT system) was assessed by measuring total protein levels using sulforhodamine B (SRB) staining in parallel cultures at the time of biomarker measurements, indicated as SRB endpoints. For proliferation assays for adherent cell types, individual cell types are cultured at sub-confluence and relative cell numbers quantified by SRB staining at time points optimized for each system (48 h: 3C and CASM3C systems; 72 h: BT and HDF3CGF systems; 96 h: SAg system). SRB was performed by staining cells with 0.1% SRB after fixation with 10% TCA and reading wells at 560 nm.Viability and proliferation of PBMC (T cells) was quantified by Alamar Blue reduction for the SAg and BT systems. For PBMC viability (referred to as PBMC Cytotoxicity within the assay endpoint names), cells were plated (75,000/well in a 96-well plate) and then chemical samples added for 1 h before addition of activators, SEB and TSST-1 (20 ng/mL final concentration each). Cells were incubated for 90 h. Then, Alamar Blue (20 uL/well) (Invitrogen, Cat DAL1100) was added for 6 h, and the plates were read with a fluorescence microplate reader at 546/580 nm (excitation/emission). For PBMC proliferation, cells were plated and activated as above but incubated for only 16 h prior to addition of Alamar Blue. Plates were read after 6 h.

Read-out in assay [2]: E-selectin (Homo sapiens) (UniProt P16581)
Put plainly: BSK_SAg_Eselectin: BioMAP Diversity Plus: SAg Assay for Eselectin Biomarker Activity (AID 2283091). The following applies: actives raise or lower the signal; primary human HUVEC with PBMC. Summed up: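 Endpoint values derive from bidirectional fitting relative to DMSO, using ELISA-measured E-selectin in a human vascular co-culture (umbilical vein endothelium plus PBMC) sampled 24 h after dosing.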

Read-out in assay [3]: Monokine induced gamma interferon (MIG), CXCL9 (gene 4283)
Put plainly: BSK_SAg_MIG: BioMAP Diversity Plus: SAg Assay for Monokine induced gamma interferon (MIG) Biomarker Activity (AID 2283092). The following applies: actives raise or lower the signal; primary human HUVEC with PBMC. How it is done:
as §1, with “plate.BSK_SAg_MIG” for “plate.BSK_SAg_MCP1”, “MIG” for “MCP-1”, “BSK_SAg_MIG” for “BSK_SAg_MCP1”, “BSK_SAg_MIG,” for “BSK_SAg_MCP1,”, “CXCL9.” for “CCL2.”
as §2

Assay [4] can be described thus: BSK_SAg_PBMCCytotoxicity: PBMC Cytotoxicity Assessment in the BioMAP Diversity Plus: SAg Assay (AID 2283093).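 Further: fitted both ways against DMSO so a hit may be loss or gain of signal.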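 On AC50: PBMC superantigen activated with SEB plus TSST-1 one hour after compound addition.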 The following applies: primary human HUVEC with PBMC. Summed up:
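Alamar Blue reduction (6 h, ex/em 546/580 nm) read after 90 h culture of PBMC pre-dosed 1 h then stimulated with SEB plus TSST-1, 20 ng/mL each. Gain or loss of signal fitted relative to DMSO.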

Read-out in assay [5]: Interleukin-8 (IL8), CXCL8 (gene 3576)
The assay is described as follows: BSK_SAg_IL8: BioMAP Diversity Plus: SAg Assay for Interleukin-8 (IL8) Biomarker Activity (AID 2283094). The following applies: actives raise or lower the signal; primary human HUVEC with PBMC. Summed up: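 Primary human endothelial cells with PBMC, exposed 24 h; IL-8 determined by ELISA, analysed bidirectionally relative to DMSO.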

A short description of assay [6]: BSK_SAg_SRB: Viability Assessment in the BioMAP Diversity Plus: SAg Assay (AID 2283096).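 Further: cells read one day after compound addition; hits may be either gain or loss of signal compared with DMSO.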 The settings on record: primary human HUVEC with PBMC. Summed up: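 SRB absorbance at 560 nm served as the viability read-out. Cells (HUVEC plus peripheral blood mononuclear cells) were TCA-fixed and stained 24 h post-dosing; activity fitted in both directions against DMSO controls.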

Assay [7] can be described thus: BSK_SAg_Proliferation: Cell Proliferation Assessment in the BioMAP Diversity Plus: SAg Assay (AID 2283095). The following applies: primary human HUVEC with PBMC. How it is done: BSK_SAg is a cell-based, multiplexed-readout assay that uses umbilical vein endothelium and peripheral blood mononuclear cells, a human vascular primary cell co-culture, with measurements taken at 24 hours after chemical dosing in a 96-well plate.BSK_SAg_Proliferation is an assay component in the BSK_SAg assay. It measures protein content, a form of viability reporter, as detected with absorbance signals by Sulforhodamine staining technology. Data from the assay component BSK_SAg_Proliferation was analyzed into 1 assay endpoint. This assay endpoint, BSK_SAg_Proliferation, was analyzed with bidirectional fitting relative to DMSO as the negative control and baseline of activity. Using a type of viability reporter, measures of total protein for gain or loss-of-signal activity can be used to understand the viability at the cellular-level. Furthermore, this assay endpoint can be referred to as a secondary readout, because this assay has produced multiple assay endpoints where this one serves a viability function. To generalize the intended target to other relatable targets, this assay endpoint is annotated to the cell cycle intended target family, where the subfamily is proliferation.
as §2

Assay [8] addresses human CYP19A1, CYP19A1 (gene 1588) (UniProt P11511). The assay is described as follows: NVS_ADME_hCYP19A1: NovaScreen (NVS) CYP450-related Enzyme Activity (ADME) Assay for human CYP19A1 (AID 2283098; active means hit-call score of the fitted dose curve at least 0.9, where 1 is the maximum). Summed up: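 Primary testing was in duplicate at a single 10 uM concentration, with actives followed up in concentration-response series. Fluorescence read-out of recombinant enzyme activity at 0.5 h, cell-free. Acetonitrile was the negative-control baseline.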

The target of assay [9] is human CYP1A1, CYP1A1 (gene 1543) (UniProt P04798). Put plainly: NVS_ADME_hCYP1A1: NovaScreen (NVS) CYP450-related Enzyme Activity (ADME) Assay for human CYP1A1 (AID 2283100; active means hit-call score of the fitted dose curve at least 0.9, where 1 is the maximum). Summed up: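 Inhibition of recombinant CYP1A1 turnover was assessed fluorometrically in a biochemical format 1 h after compound exposure. Testing began at 10 uM in duplicate and progressed to concentration series reaching 20 uM, with on-plate positive and negative controls.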

Assay [10] addresses human CYP2A6, CYP2A6 (gene 1548) (UniProt P11509). The assay is described as follows: NVS_ADME_hCYP2A6: NovaScreen (NVS) CYP450-related Enzyme Activity (ADME) Assay for human CYP2A6 (AID 2283099; active means hit-call score of the fitted dose curve at least 0.9, where 1 is the maximum). Summed up: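 Loss of fluorescence signal relative to acetonitrile vehicle reported CYP2A6 inhibition in a cell-free system using insect-cell-derived enzyme. Readings were taken at 0.5 h; top concentration in follow-up dose series was 20 uM.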

With `Cc1cc([N+](=O)[O-])cc([N+](=O)[O-])c1O`, the AC50 is active: 5.12 µM in assay [1], active: 11.8 µM in [2], active: 7.63 µM in assay [4] and active: 5.43 µM in assay [5]. Moreover, the result in assay [3] and in assay [6] was inactive.
`O=C(Cl)Oc1ccccc1`: the outcome in assay [1], in [2], in assay [3], in assay [4], in assay [5] and in [7] was inactive. Also, in assay [6], the result was inactive.
As for `CC(C)OP(=S)(OC(C)C)SCCNS(=O)(=O)c1ccccc1`, the AC50 in assay [1] was active: 30.1 µM and active: 31.9 µM and active: 33.4 µM; in [9], active: 1.02 µM and active: 688 nM and active: 659 nM. Moreover, the result in assay [8] was inactive.
On to `O=C1C2CC=CCC2C(=O)N1SC(Cl)(Cl)C(Cl)Cl` (stereo unspecified), for which the half-maximal activity concentration (AC50) in assay [3] is active: 22.1 µM; in [4] it was active: 6.05 µM; in assay [7], active: 1.53 µM; in assay [6], active: 19 µM; in assay [10] it was active: 0.973 µM.
`O=[N+]([O-])c1ccc([N+](=O)[O-])cc1`: the result in assay [1], in assay [2], in assay [3], in assay [4] and in assay [6] was inactive. Further, the AC50 is active: 9.4 µM in assay [5] and active: 11 µM in assay [7].
On to `CN(C(=O)Cc1cccc2occc12)[C@H]1CC[C@@]2(CCCO2)C[C@@H]1N1CCCC1`, for which the result in assay [1], in assay [2], in assay [3], in [4], in assay [5] and in assay [7] was inactive. Further, the outcome in assay [6] and in [8] was inactive.
